This note sets out measurements from ChEMBL document CHEMBL1149357, “Propionylpiperazines as human melanocortin-4 receptor ligands” (Bioorg Med Chem Lett, 2006).

A short description of data set [1]: Ratio of drug level in brain against plasma in mouse at 5 mg/kg, iv after 1 hr. It is filed as ADME, organism-based. Also noted: dose 5 mg/kg, route intravenous. The note with it: read-out: BPR.
Data set [2] in a line: Ratio of drug level in brain against plasma in mouse at 5 mg/kg, iv after 4 hrs. Also noted: dose 5 mg/kg, route intravenous. It is filed as ADME, organism-based. The note with it: read-out: BPR.

As for `Cc1ccc(N2CCN(C(=O)[C@H](C)Cc3ccc(Cl)cc3)CC2)c([C@@H](N)CC(C)C)c1`, the Kp at 1 h in data set [1] is 2.9. Moreover, the Kp at 4 h in data set [2] amounted to 1.4.
Turning to `COc1cc(Cl)ccc1CC(C)C(=O)N1CCN(c2ccc(C(F)(F)F)cc2[C@@H](N)CC(C)C)CC1` (some centres undefined), the Kp at 1 h in data set [1] came to 2.3. For the same compound, the Kp at 4 h in data set [2] came out at 1.9.
